Entries after “also recorded” stand apart in the source; their conditions may differ.
Molecular target: T1, human recombinant ATX (Homo sapiens, UniProt Q13822)
T1 construct: purchased Cayman Chemical
Test: Choline oxidase assay of LPC cleavage by ATX
Format: biochemical
Conditions: LPC 16:0 300 µM, ATX 50 nM, 2 h, 37 °C, various concentrations
Procedure: (a) Concentration–response curves for the inhibition of ATX activity as measured by the […] of the substrate lysophosphatidylcholine (LPC) using choline oxidase and peroxidase. LPC 16:0 (final concentration: 300 µM, above its critical micellar concentration [CMC]), human recombinant ATX (final concentration: 50 nM), and various concentrations of cPA analogues were used for incubation with 4-aminoantipyrine, TOOS (final concentration: 0.05% (w/v) each), choline oxidase and peroxidase (final concentration: 10 U/mL each) in the ATX assay buffer. […] Inhibition was calculated as percentage (%) of reduction in absorbance compared with absorbance in the vehicle control (without cPA analogues) after subtraction of the value measured at time 0. Data are represented as mean ± standard deviation (n = 3–4 samples). (b) Inhibition of ATX activity measured by lysophosphatidic acid (LPA 16:0) production via liquid chromatography coupled to triple quadrupole mass spectrometry (LC-QqQ). The substrate LPC 16:0 (final concentration: 300 µM) was incubated with human recombinant ATX (final concentration: 50 nM) and cPA analogues (final concentration: 10 μM) for 2 h at 37 °C. The ATX product, LPA 16:0, was quantified by LC-QqQ. Inhibition was calculated as percentage (%) of reduction in LPA production compared with LPA production in the vehicle control (without cPA analogues). […]

CCCCCCCCC=CCCCCCCCC(=O)OCC(O)COP(=O)(O)O (stereo not shown) [LPA 18:1, 1-Oleoyl-LPA]
Inhibition of lysoPLD activity of ATX (choline oxidase assay): almost no inhibitory activity; also recorded: does not inhibit ATX
